Results taken from ChEMBL document CHEMBL4265883, “Nav1.7 inhibitors for the treatment of chronic pain” (Bioorg Med Chem Lett, 2018).

Species: Mus musculus
Assay: Toxicity in mouse assessed as mortality
Conditions: in vivo

Compound `NC1=N[C@H](O)[C@H]2[C@H]3O[C@]4(O)O[C@@H]([C@H](O)[C@@]2(N1)[C@@H]4O)[C@]3(O)CO` has an LD50 of 0.3 mg/kg.
